# Ab-14 heavy chain CDR variants: yeast mating affinities

Source: Li et al. 2023 (doi:10.1038/s41467-023-39022-2), MIT Lincoln Laboratory and A-Alpha Bio; data file from the FLAb repository.

Binding partner: SARS-CoV-2 spike HR2 peptide, sequence PDVDLGDISGINAS.

Ab-14 is the parent antibody, in scFv form: VH, then the linker GGGGSGGGGSGGGGS, then VL. The light chain is unchanged in all variants.
VH: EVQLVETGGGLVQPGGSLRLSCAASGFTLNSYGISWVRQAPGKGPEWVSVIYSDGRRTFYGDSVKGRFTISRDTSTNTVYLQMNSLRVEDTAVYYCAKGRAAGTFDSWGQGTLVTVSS
VL: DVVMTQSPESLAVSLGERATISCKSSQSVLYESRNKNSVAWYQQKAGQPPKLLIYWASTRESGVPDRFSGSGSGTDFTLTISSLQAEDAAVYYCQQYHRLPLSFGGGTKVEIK

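These sequences belong to a second round, designed from the earlier measurements on random variants of the parent. Group labels follow the data file (Ctrl: baseline library sampled from a position-specific scoring matrix, with some repeated check sequences; GP: Gaussian process model; GPLM: also part of the Gaussian process libraries; HC: hill climbing; Gen: genetic algorithm; Gibbs: Gibbs sampling; a sequence that several methods proposed may carry one label only). In AlphaSeq, yeast of one mating type display the scFv and yeast of the other type display the target. Binding brings cells together so that they mate, and sequencing counts the barcode pairs among the diploids. Scores were corrected for input abundance and mapped to Kd with protein pairs of known affinity run in the same pool. Mating was done six times.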

Positions count from residue 1 of the parent VH; T28E puts E in place of T. Variants here have at most six changes. Kd is apparent (estimated from mating counts) and averaged on the log scale over replicates with a signal. Smaller is tighter. Where no diploid with the target was found in any replicate, the entry reads "no signal": below detection, most likely a poor binder, though not proof of it. The authors' rule: three or more of the six replicates give a measured affinity, fewer mean a poor binder. Values of this round are not directly comparable with the first-round values of the same sequences. Of ten entries with the parent sequence, four were seen in most replicates (averages 2.2 nM to 240 nM), three in one and three in none, so single entries are noisy. Background: pairings of all heavy chain designs with three empty control strains gave a value in 1% of cases (median 120 nM, 5th percentile 7.0 nM). Values in that range, when seen in few replicates, are hard to tell from nonspecific mating.

For T28E/R56K/G61S/A101T [GPLM_Gibbs], the assay gave 3.4 nM (6 of 6 replicates).
For F27C/S53R/G61I/A102M/D106S [Ctrl], the assay gave no signal (0 of 6 replicates).
For D106T [Ctrl], the assay gave 100 nM (3 of 6 replicates).
For T28D/S31D/F59M [GP_HC], the assay gave 6.1 nM (6 of 6 replicates).
For T28D/F59W/A101N [GP_Gen], the assay gave 10 nM (5 of 6 replicates).
For T28S/S53A/R100K/S107A [GP_Gen], the assay gave 800 pM (6 of 6 replicates).
For R56K/T58V/A101G [Ctrl], the assay gave 1.0 nM (1 of 6 replicates).
For G61Q/S107Q [Ctrl], the assay gave 14 nM (1 of 6 replicates).
For N30E/S53A/S63H/D106M [GP_HC], the assay gave no signal (0 of 6 replicates).
For T28W/G61I/R100Q [GPLM_Gen], the assay gave no signal (0 of 6 replicates).
For T28S/S31M/F59A [GPLM_Gibbs], the assay gave 1.5 nM (6 of 6 replicates).
For F27K/T28S/S63D/A101T [GP_Gen], the assay gave no signal (0 of 6 replicates).
For T28Q/S31E/F59Q/G61I [GP_HC], the assay gave 8.5 nM (6 of 6 replicates).
For T28S/G61Q/R100Q/A101T [GPLM_Gen], the assay gave 190 nM (2 of 6 replicates).
For G61T/R100G/A102P/S107Y [Ctrl], the assay gave 19 nM (2 of 6 replicates).
For T28H/S31D/G61I/A101L [GP_HC], the assay gave 17 nM (6 of 6 replicates).
For T28S/S31E/G61C/G103V/S107Q [GP_HC], the assay gave no signal (0 of 6 replicates).
For S31D/A101Q/S107T [GPLM_Gen], the assay gave 1.4 nM (6 of 6 replicates).
For T28S/S63K/A101T/D106W [GP_Gibbs], the assay gave no signal (0 of 6 replicates).
For N30D/R56K/R100D/T104R [Ctrl], the assay gave no signal (0 of 6 replicates).
For T28Q/A101D [GP_HC], the assay gave 300 nM (3 of 6 replicates).
For G26L/R56E/G61D/R100N/T104Y [Ctrl], the assay gave no signal (0 of 6 replicates).
For N30E/G61A/R100Q/A101G [GP_HC], the assay gave 50 nM (4 of 6 replicates).
For S53R/A101I/A102G/T104S [Ctrl], the assay gave no signal (0 of 6 replicates).
For T58N/F59E/A101L/D106L [Ctrl], the assay gave no signal (0 of 6 replicates).
For L29M/R100N [Ctrl], the assay gave 460 nM (2 of 6 replicates).
For G26K/T28S/R100Q [GPLM_Gen], the assay gave no signal (0 of 6 replicates).
For S31E/G61V/A101F [GPLM_HC], the assay gave 16 nM (6 of 6 replicates).
For S53A/K65R [Ctrl], the assay gave 1.5 nM (5 of 6 replicates).
For T28E/G61I/R100H/S107K [GP_Gen], the assay gave 13 nM (6 of 6 replicates).
For D62N/S63D/R100P [Ctrl], the assay gave 3.2 µM (2 of 6 replicates).
For T28D/A101C/D106V [Ctrl], the assay gave no signal (0 of 6 replicates).
For T28S/S53A/R100E [GPLM_Gen], the assay gave 1.4 nM (6 of 6 replicates).
For S31D/T58V [Ctrl], the assay gave 15 nM (5 of 6 replicates).
For T28D/R100M/A101T [GPLM_Gen], the assay gave 630 pM (6 of 6 replicates).
For T28E/S31D/R100T [GP_HC], the assay gave 3.9 nM (4 of 6 replicates).
For G61D/S63N/R100Q/A101N [GP_HC], the assay gave 6.7 nM (4 of 6 replicates).

Excerpt, the final 5 entries:

| changes | group | Kd | replicates with signal |
|---|---|---|---|
| T28S/S53A/R100E | GPLM_Gen | 1.4 nM | 6/6 |
| S31D/T58V | Ctrl | 15 nM | 5/6 |
| T28D/R100M/A101T | GPLM_Gen | 630 pM | 6/6 |
| T28E/S31D/R100T | GP_HC | 3.9 nM | 4/6 |
| G61D/S63N/R100Q/A101N | GP_HC | 6.7 nM | 4/6 |